The values below are quoted from earlier work in US10806871B2, “Inhalable dry powders” (priority 2012, dated 2020).

For the data set the following is noted: listing, cf. PCT Publication WO/2004/062643; cited from earlier work.

With Medroxyprogesterone, the “Solubility In Water” value is “Insoluble”.
